Source: patent publication US20240324531A1, “METHOD TO INCREASE POLLEN FERTILITY” (Keygene N.V., priority 2021, published 2024)

System: pollen of AC interspecific hybrids from a cross of Brassica oleracea and Brassica rapa
Settings: for viable pollen (MTT staining): low concentration, 20 nM in 0.5 MS medium, AC hybrid inflorescence
[1] = treatment of inflorescences of AC hybrids, concentration not given

## NC1=NC(=O)C(=Cc2ccc(O)cc2)S1 [Mirin, 2-Amino-5-[(4-hydroxyphenyl)methylene]-4(5H)-thiazolone]
Concentration range 20 nM to 1 μM, 10 days
  optimal concentration for increase of viable pollen: about 20 nM
10 days
  viable pollen (MTT staining): higher number of viable pollen grains
10 days, listed as mirin
  viable pollen (MTT staining): increase of viable pollen
[1]
  frequency of viable pollen grains: higher frequency of viable pollen grains
  size of viable pollen grains: larger viable pollen grains

Read-outs that look alike come from different tables or passages of the source.
